# Measured affinities in a library of Ab-14 heavy chain variants

Antigen: PDVDLGDISGINAS, a 14-residue peptide of the SARS-CoV-2 spike HR2 region.

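The parent was found by panning a naive human phage display library on the peptide. Library AAYL49 holds single substitutions and randomly drawn double and triple substitutions in the CDRs. Affinity was read by AlphaSeq, a pooled yeast mating assay with surface-displayed partners. The frequency of each diploid, read from paired DNA barcodes, reflects how well the two displayed proteins bind. Read counts were normalised to the haploid input and turned into Kd by a linear fit to BCL2-family pairs of known affinity, for each replicate. Each pool was mated in three replicate cultures.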

Parent: Ab-14, a human scFv built as VH, a (GGGGS)3 linker, VL. Only the CDRs of the heavy chain vary.
VH: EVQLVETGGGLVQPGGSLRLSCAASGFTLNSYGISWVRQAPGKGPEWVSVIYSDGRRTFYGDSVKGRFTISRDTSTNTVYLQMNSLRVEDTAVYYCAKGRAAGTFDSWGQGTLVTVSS
VL: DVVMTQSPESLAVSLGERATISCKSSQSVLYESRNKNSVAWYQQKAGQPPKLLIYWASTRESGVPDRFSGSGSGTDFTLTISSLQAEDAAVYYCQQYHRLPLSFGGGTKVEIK

Changes read parent residue, position, new residue, counted from the first residue of the VH shown.
Every variant below is changed at S63 of the VH (sequential numbering).
The read-out is the apparent dissociation constant on a log10 scale (nM): the lower, the stronger.
A mean of the replicates is given; it leaves out those without a signal.
"nd" means that the variant was in the library but no mating with the target was seen in any replicate; the authors take this as a sign of poor binding, and no number exists.

With S63H+G99M+D106C the result was 4.53 (3 of 3 replicates). Variant F27S+S63E+K65Q showed 2.22 (3 of 3 replicates). Variant S63D+G103N+D106K showed 2.78 (3 of 3 replicates). For I34Q+S63W+R100C, the assay gave 4.35 (3 of 3 replicates). Variant F59C+S63A gave 2.87 (3 of 3 replicates). Variant D54G+F59C+S63P gave 3.82 (2 of 3 replicates). For V50P+S63V+R100M, the assay gave nd (0 of 3 replicates). Variant I34V+R56N+S63E gave nd (0 of 3 replicates). For T58S+S63T, the assay gave 1.95 (3 of 3 replicates).

Variant S63F+K65V+D106T gave nd (0 of 3 replicates). Variant S63D+G99F+A102W gave nd (0 of 3 replicates). Variant Y60L+S63M+R100D showed nd (0 of 3 replicates). Variant G26F+F59K+S63D showed nd (0 of 3 replicates). For G33N+S63M+K65P, the assay gave 4.30 (1 of 3 replicates). With Y32K+S63M+D106H the result was nd (0 of 3 replicates). With R56M+S63R+A101Q the result was nd (0 of 3 replicates). With Y60H+S63V+A101W the result was nd (0 of 3 replicates). With R56D+S63R+G99C the result was 3.53 (2 of 3 replicates).

With S53R+D54Q+S63G the result was nd (0 of 3 replicates). Variant I51V+D54G+S63D gave 4.67 (2 of 3 replicates). Variant S31L+S63M+V64F showed 2.57 (2 of 3 replicates). With D54A+R57V+S63R the result was 2.77 (1 of 3 replicates). For S63V+G103Y, the assay gave 3.59 (1 of 3 replicates). Variant G55V+S63R+S107I gave 3.92 (1 of 3 replicates). With G26K+S31W+S63A the result was nd (0 of 3 replicates). With S31R+G55V+S63C the result was nd (0 of 3 replicates). With G26M+S63G+V64A the result was 3.12 (1 of 3 replicates).

Variant S63C showed 2.98 (3 of 3 replicates). For G61F+S63R+S107F, the assay gave nd (0 of 3 replicates). With G61S+S63V+T104S the result was 3.27 (3 of 3 replicates). Variant G26E+F27P+S63W gave 4.08 (3 of 3 replicates). With F27I+S63D+K65H the result was 4.15 (2 of 3 replicates). Variant F27D+S63H showed 0.84 (3 of 3 replicates). Variant S35F+F59H+S63G showed nd (0 of 3 replicates). For G26W+F27Y+S63M, the assay gave 2.97 (1 of 3 replicates). With D54V+F59W+S63W the result was nd (0 of 3 replicates).

Variant Y52H+S63R+S107F gave nd (0 of 3 replicates). With S63M+V64F+D106T the result was nd (0 of 3 replicates). Variant G61N+S63T gave 2.80 (1 of 3 replicates). For T28C+I51N+S63K, the assay gave 3.83 (2 of 3 replicates). With Y60L+S63Y+R100I the result was nd (0 of 3 replicates). Variant G61S+S63L+A102V gave 2.56 (3 of 3 replicates). For G26W+S63Q+S107G, the assay gave 3.38 (3 of 3 replicates). For I51C+S63T+K65E, the assay gave 4.19 (2 of 3 replicates). Variant D54M+S63G+G103F gave 4.37 (2 of 3 replicates).

Variant I34E+S63A+T104E gave nd (0 of 3 replicates). Variant T28S+I51R+S63E gave 4.09 (3 of 3 replicates). With L29N+S63V the result was 4.98 (1 of 3 replicates). With T28E+D54R+S63A the result was nd (0 of 3 replicates). With G26V+T28P+S63Y the result was 3.37 (1 of 3 replicates). For S63L+S107L, the assay gave 2.38 (3 of 3 replicates). With G26V+S63D+K65L the result was 3.49 (2 of 3 replicates).

The closing 4 entries, repeated:

{"changes": "T28E+D54R+S63A", "mean log10 Kd (nM)": "nd", "seen in": "0/3"}
{"changes": "G26V+T28P+S63Y", "mean log10 Kd (nM)": "3.37", "seen in": "1/3"}
{"changes": "S63L+S107L", "mean log10 Kd (nM)": "2.38", "seen in": "3/3"}
{"changes": "G26V+S63D+K65L", "mean log10 Kd (nM)": "3.49", "seen in": "2/3"}

Empty control strains, which show no peptide, gave a signal in 15% of pairings with library AAYL49; the median was 4.06 and 95% of these signals were weaker than 2.83. No background was subtracted.

Source: Engelhart et al. 2022 (doi:10.1038/s41597-022-01779-4), MIT Lincoln Laboratory and A-Alpha Bio; data file from the FLAb repository.